# Source: PubChem BioAssay (Broad Institute)
# Hits are enriched below; roughly 1.2% of the tested compounds scored in any of these assays.
# UUG fidelity: modulators of yeast start codon fidelity, primary screen, whole organism, S. cerevisiae, single point, plate reader | AID 602363, 2012 | actives 0.13% (n = 350,000) | activity score, % at 18.7 µM | S. cerevisiae UUG-firefly luciferase reporter, luminescence/redox ratio;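 active means replicate mean at a twofold rise or more, about +100% in these data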;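 further: firefly luciferase made from a UUG start codon reports start codon fidelity; reporter light over untreated wells divided by growth signal over untreated wells; some hits fall short of that in this replicate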
# Cneo AK release: Cryptococcus neoformans cell lysis inducers, primary screen, AK release luminescence, single concentration | lysis activity, % at 15 µM | C. neoformans lysis, adenylate kinase release luminescence, 4 h; normalised: neutral wells 0, clomiphene wells 100 | hit rate 0.2% among 360,000;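 active means mean lysis activity across replicates of at least 80%, whatever share of replicates individually reach that level; inactive means mean lysis activity below 80%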
#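 Test system: log-phase Cryptococcus neoformans yeast cells; Quantity: yeast cell density of 5 × 10^6 cells/mL; Buffer or medium: YPD; Doses: single compound concentration per well; Timing: 4 h at 37 °C static, read 1 h later; Measured by: AK luminescence; Read-out basis: lysis from increased AK signal; Control set: Clomiphene as positive control.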
# Statin myotox sup: suppressors of statin myotoxicity in C2C12 myotubes, primary screen, cell-based, single point, plate reader | C2C12 myotubes + simvastatin, ATP luminescence, 48 h; scaled: DMSO 0, geranylgeraniol control 100 | rescue of ATP level, % at 7.49 µM | hit rate 0.78% among 330,000 | AID 602340, 2012;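 active means mean ATP rescue above about 67%, or every replicate alone reaching that limit, limit read from the data, passing the limit was not always enough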;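 further: myotubes were challenged with 10 µM simvastatin during compound exposure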
# miR122 inh: miR-122 Renilla sensor signal increase in Huh7, primary screen, miR-122 inhibitor project, cell-based, single point, plate reader. Huh7 miR-122 Renilla luciferase sensor, 48 h; neutral wells = 0, positive control = 100. activation (reporter increase), % at 12.5 µM. hit rate 0.3% among 340,000;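 active means mean replicate activation score at least 90 and every replicate individually at or above 90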;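 further: higher luciferase means less miR-122 activity so hits act as miR-122 inhibitors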
# Active calls of the source: *; x = not tested or not shown; [ ] = another dose, or the depositor's remark.
# Letters – A = UUG fidelity; B = Cneo AK release; C = Statin myotox sup; D = miR122 inh
SMILES: COc1cc(S(=O)(=O)NC2CCCCC2)ccc1Cl
  A: -33 | B: 2 | C: 27 | D: 121*
SMILES: COc1ccc(S(=O)(=O)NC2CCCC2)cc1NC(C)=O
  A: -9 | B: 3 | C: -4 | D: x
SMILES: COc1ccc(S(=O)(=O)NC2CCCCC2)cc1C
  A: 10 | B: -1 | C: 16 | D: 137*
SMILES: COc1cccc(S(=O)(=O)N[C@@H]2CC[C@H](CC(=O)NCc3ccncc3)O[C@@H]2CO)c1
  A: -16 | B: -2 | C: -1 | D: -11[16.7 µM]
SMILES: CNC(=O)C[C@H]1CC[C@@H]2[C@@H](COc3ccc(NC(=O)C4CCCCC4)cc3C(=O)N2C)O1
  A: 7 | B: x | C: 16 | D: -4[16.7 µM]
SMILES: CSc1nc2ccc(S(=O)(=O)NC3CCCCC3)cc2s1
  A: x | B: x | C: 8 | D: 175*
SMILES: COc1ccc(C)cc1S(=O)(=O)NC1CCCC1
  A: -12 | B: 1 | C: 0 | D: 170*
SMILES: CCNS(=O)(=O)c1cc(Br)ccc1OC
  A: -6 | B: -1 | C: -1 | D: 248*
SMILES: CCOC(=O)N1CCN(C(=O)COc2ccc(S(=O)(=O)NC3CCCCC3)cc2C)CC1
  A: 15 | B: 0 | C: 116* | D: 19
SMILES: COc1ccc(C)cc1S(=O)(=O)NC1CC1
  A: -18 | B: 1 | C: -8 | D: 3

# Reprinted from the part before: 2 entries, then new ones.
# Letters – A = UUG fidelity; B = Cneo AK release; C = Statin myotox sup; D = miR122 inh
SMILES: CCOC(=O)N1CCN(C(=O)COc2ccc(S(=O)(=O)NC3CCCCC3)cc2C)CC1
  A: 15 | B: 0 | C: 116* | D: 19
SMILES: COc1ccc(C)cc1S(=O)(=O)NC1CC1
  A: -18 | B: 1 | C: -8 | D: 3
SMILES: COCCNC(=O)c1cc2c(c(-c3cccc(-c4cccc(F)c4)c3)n1)[C@H](CCO)N(S(=O)C(C)(C)C)C2 (some centres undefined)
  A: x | B: -17 | C: x | D: x
SMILES: C[C@H](CO)N1C[C@H](C)[C@H](CN(C)Cc2ccncc2)Oc2ccc(NS(=O)(=O)c3ccc(F)cc3)cc2C1=O
  A: 16 | B: -3 | C: -15 | D: 4[16.7 µM]
SMILES: CO[C@H]1CN(C)C(=O)c2ccc(NC(=O)c3cccc(F)c3)cc2OC[C@H](C)N(C(C)=O)C[C@H]1C
  A: 0 | B: 0 | C: -3 | D: 2[16.7 µM]
SMILES: CCOc1ccc(Br)cc1S(=O)(=O)NC1CCCC1
  A: -1 | B: -1 | C: -3 | D: 93*
SMILES: O=C(O)C1CCCCC1C(=O)Nc1ccccn1 (centres undefined)
  A: -5 | B: 1 | C: 105* | D: -3
SMILES: CCN(C(=O)COC(=O)c1nc2nc(C)cc(C)n2n1)C1CCS(=O)(=O)C1 (centres undefined)
  A: -2 | B: 0 | C: 4 | D: -4
SMILES: Cc1cc(C)n2nc(C(=O)OCC(=O)N(CC(C)C)C3CCS(=O)(=O)C3)nc2n1 (centres undefined)
  A: -17 | B: -2 | C: 96* | D: -1
SMILES: O=C(Nc1ccc(Cl)c([N+](=O)[O-])c1)C(NCCCO)c1ccccc1 (centres undefined)
  A: -8 | B: 0 | C: x | D: 226*
SMILES: CCN1CCN(c2ccc(NC(=O)Cc3ccccc3)cc2)CC1
  A: -5 | B: -2 | C: 105* | D: 31
SMILES: O=C(Nc1cccc(-n2cnnn2)c1)c1ccco1
  A: -13 | B: 0 | C: 111* | D: -10

# Continued:
# Letters – A = UUG fidelity; B = Cneo AK release; C = Statin myotox sup; D = miR122 inh
SMILES: O=C(Nc1cccc(-n2cnnn2)c1)c1cc2ccccc2o1
  A: -8 | B: -5 | C: 5 | D: x
SMILES: Cc1ccccc1C(=O)NCc1nnc(SCC(=O)N2CCN(c3ccccc3)CC2)n1C
  A: -8 | B: 4 | C: 101* | D: -3
SMILES: COCC(C)NC(C(=O)Nc1ccc(Cl)c([N+](=O)[O-])c1)c1ccccc1 (centres undefined)
  A: -13 | B: 0 | C: -2 | D: 17
SMILES: CN(C)C(=O)C[C@H]1CC[C@H]2[C@@H](COC[C@H](O)CN2CC2CCCC2)O1
  A: x | B: -4 | C: -2 | D: 0[16.7 µM]
SMILES: CN1CCN(C(=O)C[C@@H]2CC[C@H]3[C@@H](COC[C@@H](O)CN3C(=O)C3CCCC3)O2)CC1
  A: -17 | B: -7 | C: 12 | D: 8[16.7 µM]
SMILES: COc1ccc(S(=O)(=O)N(C)C[C@@H]2Oc3ccc(NC(=O)C4CC4)cc3C(=O)N([C@@H](C)CO)C[C@@H]2C)cc1
  A: -9 | B: -1 | C: -19 | D: 5[16.7 µM]
SMILES: CCC(=O)N1CCN(c2ccc(NC(=O)c3ccco3)cc2)CC1
  A: -9 | B: 0 | C: 95* | D: -2
SMILES: O=C(Nc1ccc(Cl)cc1C(=O)Nc1ccncc1)c1ccco1
  A: -20 | B: -1 | C: 91* | D: -2
SMILES: CC(=O)N1CCN(c2ccc(NC(=O)c3ccco3)cc2)CC1
  A: x | B: x | C: 5 | D: -3
SMILES: O=C(Nc1ccc(Cl)c([N+](=O)[O-])c1)c1ccco1
  A: -11 | B: 112* | C: -2 | D: -2

# Later entries:
# Letters – A = UUG fidelity; B = Cneo AK release; C = Statin myotox sup; D = miR122 inh
SMILES: O=C(NCc1nnc(SCC(=O)N2CCN(c3ccccc3)CC2)o1)c1ccco1
  A: -10 | B: -1 | C: 93* | D: 2
SMILES: C[C@@H]1CN([C@H](C)CO)C(=O)c2cc(NC(=O)Cc3ccccc3)ccc2O[C@@H]1CN(C)C(=O)Nc1ccc2c(c1)OCO2
  A: 0 | B: 0 | C: 20 | D: 28[16.7 µM]
SMILES: C[C@H]1CN([C@@H](C)CO)C(=O)Cc2cc(NS(C)(=O)=O)ccc2O[C@@H]1CN(C)C(=O)Nc1ccccc1
  A: -5 | B: -1 | C: 5 | D: 2[16.7 µM]
SMILES: COc1ccc(NC(=O)Nc2ccc3c(c2)CC(=O)N([C@@H](C)CO)C[C@@H](C)[C@@H](CN(C)C(=O)Nc2c(C)noc2C)O3)cc1
  A: -25 | B: 0 | C: -25 | D: 6[16.7 µM]
SMILES: COc1ccc(NC(=O)Nc2ccc3c(c2)C(=O)N([C@@H](C)CO)C[C@H](C)[C@@H](CN(C)S(=O)(=O)c2ccccc2)O3)cc1
  A: 3 | B: -1 | C: x | D: -4[16.7 µM]
SMILES: O=C(Nc1ccc(N2CCN(C(=O)c3ccccc3)CC2)c(Cl)c1)c1ccco1
  A: -2 | B: -1 | C: 122* | D: 67
SMILES: O=C(Nc1ccc(Br)c(Cl)c1)c1ccco1
  A: -15 | B: -7 | C: 12 | D: 144*
SMILES: CN1CCN(C(=O)[C@@H]2[C@@H](CO)[C@@H]3Cn4c(ccc(-c5cccnc5)c4=O)[C@@H]3N2CC2CC2)CC1
  A: x | B: -7 | C: 0 | D: 5[16.7 µM]
SMILES: Nc1ccc2oc(-c3cccc4ccccc34)nc2c1
  A: -25 | B: -2 | C: 89* | D: 10
SMILES: Cc1ccc(-c2nc3cc(N)ccc3o2)c(C)c1
  A: -47 | B: -7 | C: -1 | D: -3

# Further structures.
# Letters – A = UUG fidelity; B = Cneo AK release; C = Statin myotox sup; D = miR122 inh
SMILES: CCOC(=O)Nc1ccc(C)cc1Br
  A: -10 | B: 1 | C: 108* | D: -1
SMILES: CN(C)C(=O)C[C@@H]1C[C@H]2c3cc(NC(=O)C4CCC4)ccc3O[C@H]2[C@@H](CO)O1
  A: -12 | B: -3 | C: 9 | D: 6[16.7 µM]
SMILES: COC(=O)C1=C(C)N=C2SC(C)C(=O)N2C1c1cccs1 (centres undefined)
  A: -4 | B: -1 | C: 121* | D: 5
SMILES: Cc1noc(C)c1S(=O)(=O)Nc1ccc2c(c1)CC(=O)N([C@H](C)CO)C[C@H](C)[C@@H](CN(C)S(=O)(=O)c1cn(C)cn1)O2
  A: 13 | B: 110* | C: -11 | D: -7[16.7 µM]
SMILES: Cc1noc(C)c1S(=O)(=O)Nc1ccc2c(c1)CC(=O)N([C@@H](C)CO)C[C@@H](C)[C@@H](CN(C)S(=O)(=O)c1cccs1)O2
  A: 18 | B: 106* | C: -1 | D: 30[16.7 µM]
SMILES: Cc1noc(C)c1NC(=O)N(C)C[C@@H]1Oc2ccc(NS(=O)(=O)c3cn(C)cn3)cc2CC(=O)N([C@H](C)CO)C[C@@H]1C
  A: -6 | B: -2 | C: -13 | D: 13[16.7 µM]
SMILES: Cc1noc(C)c1NC(=O)N(C)C[C@H]1Oc2ccc(NS(=O)(=O)c3cn(C)cn3)cc2CC(=O)N([C@H](C)CO)C[C@H]1C
  A: -10 | B: 102* | C: 2 | D: 14[16.7 µM]
SMILES: Cc1noc(C)c1S(=O)(=O)Nc1ccc2c(c1)CC(=O)N([C@@H](C)CO)C[C@H](C)[C@H](CN(C)S(=O)(=O)c1cccs1)O2
  A: 10 | B: 1 | C: -8 | D: -1[16.7 µM]
SMILES: CCN(CC)c1ccc(NC(=O)c2cc3ccccc3o2)c(C)c1
  A: 3 | B: 0 | C: 159* | D: -4

# Looked up one by one from the list above:
# Letters – A = UUG fidelity; B = Cneo AK release; C = Statin myotox sup; D = miR122 inh
SMILES: C[C@H]1CN([C@@H](C)CO)C(=O)Cc2cc(NS(C)(=O)=O)ccc2O[C@@H]1CN(C)C(=O)Nc1ccccc1
  A: -5 | B: -1 | C: 5 | D: 2[16.7 µM]
SMILES: C[C@@H]1CN([C@H](C)CO)C(=O)c2cc(NC(=O)Cc3ccccc3)ccc2O[C@@H]1CN(C)C(=O)Nc1ccc2c(c1)OCO2
  A: 0 | B: 0 | C: 20 | D: 28[16.7 µM]
